ChEMBL document CHEMBL2169848, “Synthesis physicochemical profile and PAMPA study of new NO-donor edaravone co-drugs” (Bioorg Med Chem, 2012)

Assays:
[1] = system: Thoracic aorta; experiment: Vasodilatory activity in Wistar rat thoracic aorta assessed as inhibition of L-phenylephrine-induced contraction in presence of 1 uM 1H-[1,2,4]oxadiazolo[4,3-a]quinoxalin-1-one; conditions: strain Wistar
[2] = system: Thoracic aorta; experiment: Vasodilatory activity in Wistar rat denuded thoracic aorta assessed as inhibition of L-phenylephrine-induced contraction; conditions: strain Wistar

Row | Structure (SMILES) | EC50 [1] [µM] | EC50 [2] [µM]
1 | O=[N+]([O-])OCC(CCCCO)O[N+](=O)[O-] (centres undefined) | > 100 | 0.83
2 | O=C(O)CCCC(CO[N+](=O)[O-])O[N+](=O)[O-] (centres undefined) | > 100 | 5.8
